Measurements from PubChem BioAssay AID1385 (PCMD, 2008).
The list shows a part of the results, in another mix than the full data. Activity calls are given as the source filed them.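 The calls were made as follows: active = inhibition above 40% at the single screening dose; inactive = the rest.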

By UniProt entry, the sequences of proteins in these tests, tags left out.
UniProt Q06609, whole entry: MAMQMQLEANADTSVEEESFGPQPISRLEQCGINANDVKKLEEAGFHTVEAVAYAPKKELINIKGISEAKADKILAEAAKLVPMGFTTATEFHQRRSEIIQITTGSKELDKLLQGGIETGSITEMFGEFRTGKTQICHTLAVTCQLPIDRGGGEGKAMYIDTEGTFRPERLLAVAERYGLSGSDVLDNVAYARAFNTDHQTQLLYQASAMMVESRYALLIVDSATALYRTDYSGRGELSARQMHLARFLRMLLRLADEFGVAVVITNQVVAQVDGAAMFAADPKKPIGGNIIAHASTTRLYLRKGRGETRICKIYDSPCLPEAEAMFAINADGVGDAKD

target: DNA repair protein RAD51 homolog 1 (Homo sapiens) (UniProt Q06609); experiment: human RAD51 strand exchange inhibitors, primary screen, biochemical, fluorescence (AID 1385); settings: hRad51 DNA strand exchange, fluorescence dequenching; at 10 µM; hits give high values;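 also: 0% = DMSO control wells and 100% = blanks with heterologous ssDNA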

SMILES	inhibition
CC(C)(C)c1ccc(OP(C)(=O)O)cc1	inactive: -1.14%
CP(=O)(OC12CC3CC(CC(C3)C1)C2)OC12CC3CC(CC(C3)C1)C2	inactive: 3.83%
CCOC(=O)c1ccc(NP(C)(=O)Oc2ccc(Cl)cc2)cc1 (stereo unspecified)	inactive: -31.1%
COc1ccc(OP(C)(=O)Nc2ccccc2Br)cc1 (stereo unspecified)	inactive: 5.95%
COc1ccccc1OP(C)(=O)Nc1ccc(C)c(C)c1 (stereo unspecified)	inactive: -1.26%
Cc1cc(C)cc(OP(C)(=O)Nc2cccc(C(F)(F)F)c2)c1 (stereo unspecified)	inactive: 3.09%
CP(=O)(Nc1ccc(Cl)cc1Cl)Oc1ccccc1 (stereo unspecified)	inactive: -7.49%
CP(=O)(OCCOc1ccccc1)OCCOc1ccccc1	inactive: 1.96%
Cc1nc2ccc3ccccc3c2o1.O=[N+]([O-])c1cc([N+](=O)[O-])c(O)c([N+](=O)[O-])c1	inactive: 4.42%
CN(C)CCOC(=O)C(O)(c1ccccc1)C1CCCC1 (stereo unspecified)	inactive: -1.31%
COc1ccc(OP(C)(=O)Nc2ccccn2)cc1 (stereo unspecified)	inactive: 2.09%
COc1ccccc1OP(C)(=O)Nc1ccc(Br)cc1 (stereo unspecified)	inactive: 2%
CCc1ccc(OP(C)(=O)O)cc1	inactive: -2.91%
CP(=O)(Nc1ccccn1)Oc1ccccc1 (stereo unspecified)	inactive: 1.54%
COc1ccccc1OP(C)(=O)Nc1ccc(C)cc1C (stereo unspecified)	inactive: -2.01%
Cc1c(NP(C)(=O)Oc2ccc(C(C)C)cc2)c(=O)n(-c2ccccc2)n1C (stereo unspecified)	inactive: -1.39%
O=[N+]([O-])c1cc([N+](=O)[O-])c(Nc2ccccn2)c([N+](=O)[O-])c1	inactive: -1.78%
CCN(CC)CCCOC(=O)C(O)(c1ccccc1)c1ccccc1	inactive: 0.87%
CC(C)(C)c1ccc(OP(C)(=O)Nc2ccc(SC(F)(F)F)cc2)cc1 (stereo unspecified)	inactive: -18.6%
Cc1cccc(C)c1OP(C)(N)=O (stereo unspecified)	inactive: 2.78%
O=[N+]([O-])c1ccc2c(c1)C=Nc1ccccc1O2	inactive: 15.7%
COc1ccccc1OP(C)(=O)Nc1cc(Cl)ccc1C (stereo unspecified)	inactive: 2.59%
Cc1cc(C)cc(OP(C)(N)=O)c1 (stereo unspecified)	inactive: -0.71%
CCOC(=O)c1ccc(NP(C)(=O)Oc2ccccc2)cc1 (stereo unspecified)	inactive: 17.7%
COc1ccccc1OP(C)(=O)Nc1ccc(C)cc1 (stereo unspecified)	inactive: 1.59%
COc1ccccc1OP(C)(=O)Nc1ccccc1 (stereo unspecified)	inactive: 11.8%

SMILES	inhibition
CP(=S)(Nn1cnnc1)Oc1ccccc1 (stereo unspecified)	inactive: 5.63%
CP(=O)(NC(=O)Nc1ccccc1)Oc1ccccc1 (stereo unspecified)	inactive: 7.36%
CCc1ccc(OP(C)(=O)N2CCN(c3ccc([N+](=O)[O-])cc3)CC2)cc1 (stereo unspecified)	inactive: 1.68%
Cc1cc(C)cc(OP(C)(=O)Nc2ccc(SC(F)(F)F)cc2)c1 (stereo unspecified)	inactive: -3%
Cc1cccc(C)c1OP(C)(=O)Nc1ccc(SC(F)(F)F)cc1 (stereo unspecified)	inactive: 3.54%
CP(=O)(Nc1ccc(SC(F)(F)F)cc1)Oc1ccc(Cl)cc1 (stereo unspecified)	inactive: 20.9%
CP(=O)(Oc1ccccc1)OC(c1ccccc1)C(F)(F)F (stereo unspecified)	inactive: 1.27%
CP(=O)(Nc1ccccn1)Oc1ccc(Cl)cc1 (stereo unspecified)	inactive: 4.97%
CCOP(C)(=S)SCC(=O)NC(C)C(=O)O (stereo unspecified)	inactive: -5.76%
CCOC(=O)c1ccc(NP(C)(=O)Oc2ccc(OC)cc2)cc1 (stereo unspecified)	inactive: -1.22%
O=[N+]([O-])c1cc([N+](=O)[O-])c(-n2nnc3ccccc32)c([N+](=O)[O-])c1	inactive: -10.7%
Cc1nc2ccc3ccccc3c2s1.O=[N+]([O-])c1cc([N+](=O)[O-])c(O)c([N+](=O)[O-])c1	inactive: 0.43%
CCOC(=O)C(CC)C1=NC(C)(C)Cc2ccccc21.O=[N+]([O-])c1cc([N+](=O)[O-])c(O)c([N+](=O)[O-])c1 (stereo unspecified)	inactive: 18.4%
CCCOc1ccc(NP(C)(=O)Oc2ccc(Cl)cc2)cc1 (stereo unspecified)	inactive: -6.53%
CP(=O)(Nc1ccc(SC(F)(F)F)cc1)Oc1ccccc1 (stereo unspecified)	inactive: 6.9%
COc1ccccc1OP(C)(=O)Nc1c(C)cccc1C (stereo unspecified)	inactive: 1.19%
CN1CCCCC1COC(=O)C1(O)c2ccccc2CCc2ccccc21 (stereo unspecified)	inactive: 9.68%
O=C(O)c1cccc(Nc2c([N+](=O)[O-])cc([N+](=O)[O-])cc2[N+](=O)[O-])c1	inactive: 17.3%
CC1=NCCc2c1[nH]c1ccccc21.O=[N+]([O-])c1cc([N+](=O)[O-])c(O)c([N+](=O)[O-])c1	inactive: -0.32%
Cc1cc(C)cc(OP(C)(=O)Nc2ccc(C)cc2C)c1 (stereo unspecified)	inactive: -1.47%
CCOC(=O)c1ccc(NP(C)(=O)Oc2cc(C)cc(C)c2)cc1 (stereo unspecified)	inactive: 4.8%
COc1ccccc1OP(C)(=O)Nc1cccc(Br)c1 (stereo unspecified)	inactive: -0.97%
Cc1cc(C)cc(OP(C)(=O)Nc2ccccn2)c1 (stereo unspecified)	inactive: -0.67%
CP(=O)(Nc1cccc(Br)c1)Oc1ccccc1 (stereo unspecified)	inactive: 3.01%
Cc1ccc(C)c(NP(C)(=O)Oc2ccccc2)c1 (stereo unspecified)	inactive: -7.95%
